Results published in patent US7893064B2, “Hydrazone derivatives as kinase inhibitors” (Janssen Pharmaceutica NV, priority 2006, dated 2011).

The chains behind the UniProt entries cited, without tags or fusion partners. Residues count along the entry.
UniProt P00533, 669-1210 limits assumed: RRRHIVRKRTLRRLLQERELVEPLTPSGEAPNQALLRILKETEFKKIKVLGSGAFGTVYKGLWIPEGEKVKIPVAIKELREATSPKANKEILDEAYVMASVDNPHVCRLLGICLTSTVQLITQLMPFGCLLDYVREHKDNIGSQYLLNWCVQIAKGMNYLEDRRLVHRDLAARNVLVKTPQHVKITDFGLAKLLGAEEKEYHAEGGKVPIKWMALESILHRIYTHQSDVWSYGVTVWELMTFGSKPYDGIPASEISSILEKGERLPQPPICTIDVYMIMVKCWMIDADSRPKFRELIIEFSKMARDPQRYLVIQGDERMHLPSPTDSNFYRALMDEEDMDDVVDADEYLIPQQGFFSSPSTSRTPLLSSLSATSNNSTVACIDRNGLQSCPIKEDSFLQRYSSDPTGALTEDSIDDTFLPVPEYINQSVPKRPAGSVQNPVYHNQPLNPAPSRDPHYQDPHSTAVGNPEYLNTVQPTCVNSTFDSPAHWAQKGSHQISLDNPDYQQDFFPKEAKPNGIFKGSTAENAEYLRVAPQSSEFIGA

Biological target: T1, EGFR kinase (GST fusion of intracellular portion of EGFR, NM_005228) (Homo sapiens, UniProt P00533)
T1 construct: The intracellular portion of EGFR started at nucleotide 2189 (corresponding to amino acid 667) and ended at the termination codon; made in house; host or cells: Sf9 insect cells (baculovirus)
Assay: EGFR Kinase Assay
Type: biochemical
Settings: GSTEGFR, ATP 5 μM, biotinylated polyGluTyr, 33P Flashplate; read-out: EGFR Inhibition (%) IC50
Excerpt: The portion was PCR amplified with primers that added the lambda attB sequences to each end, recombined into an entry vector, then into a GST destination vector (as described in Gateway Technologies Manual by Invitrogen Corporation, Carlsbad, Calif.).
The destination vector was recombined in the DH10BAC strain of bacteria to produce a bacmid. The bacmid was transfected into Sf9 cells and the supernatant containing the baculovirus was collected. The GSTEGFR protein was purified using large cultures of Sf9 cells infected with stock virus. After an appropriate period of time, the cells were collected and lysed. The GSTEGFR was then purified from the lysate on Glutathione-Sepharose columns (as described by Amersham Biosciences, Buckinghamshire, United Kingdom).
The free biotin was separated from the biotinylated polyGluTyr on a gel filtration column. […]
The plates were incubated at 30° C. for 1 hr with shaking. […] The plates were then sealed and read on the TopCount scintillation counter.
Test compounds were assayed in triplicate at 16 concentrations at half-log dilutions starting at 200 uM. A maximum and minimum signal for the assay was determined on each plate. The percent inhibition of a test compound was calculated according to the formula […]

IC50: 29.8 nM
Compound: Nc1ncnc(Nc2ccc3c(cnn3Cc3cccc(F)c3)c2)c1C=NN1CCCCC1 [Cpd 3, N-[1-(3-fluoro-benzyl)-1H-indazol-5-yl]-5-(piperidin-1-yliminomethyl)-pyrimidine-4,6-diamine]
